Data reported in patent US20200024330A1 (published 2020).

Molecular target: aMLV envelope protein on pseudotyped virus (negative control) (aMLV)
Assay: cell-based or functional assay

B1: 1456_P20 (PG20) (antibody, V domains shown)
VH: QVRLVQSGPEVKKPGSSVTVSCQASGGTFSSYAFTWVRQAPGQGLEWLGMVTPIFGEAKYSQRFEGRVTITADESTSTTSIELRGLTSEDTAIYYCARDRRAVPIATDNWLDPWGQGTLVTVSS
VL: DIQLTQSPSSLSASVGDRVSITCRASQTINNYLNWYQQTPGKAPKLLIYGASNLQNGVPSRFSGSGSGTDFTLTISSLQPEDFATYYCQQSFSTPRTFGQGTRLDIKR
  IC50, pseudovirus neutralization, 1 hour Virus/Ab Incubation: > 50 µg/mL
  IC50, pseudovirus neutralization, 18 hour Virus/Ab Incubation: > 50 µg/mL
